The values below come from PubChem BioAssay AID1272365 (Small Molecule Screening Facility, UW Madison, 2020).

“And” between values parts separate entries of the source, which are not always exact repeats. Equal values may be shown once. The list shows a part of the results, in another mix than the full data. The source made the active and inactive calls. Rule as the data show it: active = inhibition mostly above about 37% (no sharp cut-off); inactive = mostly below about 20%.

In this assay the test system is PriA–SSB C-terminal tail interaction (Klebsiella pneumoniae). The experiment in a line: inhibitors of Klebsiella pneumoniae PriA binding to SSB C-terminal tail, primary screen, biochemical, AlphaScreen (AID 1272365).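 Also: plate controls were negative control peptide for no effect and reference peptide for full effect.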 The following applies: AlphaScreen SSBct-PriA binding, biotinylated peptide; at 33 µM; active compounds read high. (In general: Bead proximity is the source of the signal in Alpha formats.)
As a reminder, the inhibition is the relative decrease from the control value, in per cent. For the compound `O=C(O)COc1ccc([As](=O)(O)O)cc1[N+](=O)[O-]`, the inhibition was inactive: -5.33%.
For the compound `O=C(NC(Sc1ccc(Cl)cc1)C(Cl)(Cl)Cl)c1ccccc1Cl` (stereo unspecified), the inhibition was inactive: 4%.
As for `CCCOP(=S)(Nc1nc(N)cc(=O)[nH]1)OCCC`, the figure is inactive: -4.92%.
`Cc1ccc(NCCc2c([N+](=O)[O-])cc([N+](=O)[O-])cc2[N+](=O)[O-])cc1`: the inhibition is active: 76.7%.
Consider `Nc1cccc2c([As](=O)(O)O)cccc12`, for which the inhibition was inactive: -5.19%.
In the case of `COc1cc(C2NCCC3(OCCO3)C2(C)C)cc(OC)c1OC` (stereo unspecified), the inhibition was inactive: -5.89%.
Consider `CCOP(=O)(Nc1cccc2ccccc12)OCC`, for which the inhibition is inactive: -10% and inactive: 5.5%.
For the compound `COc1cc(C(=O)NCC2(N3CCOCC3)CCCCC2)cc(Cl)c1OC(C)C`, the inhibition was inactive: -15%.
Regarding `O=[As](O)(O)c1cccnc1`, the inhibition was inactive: -10.9%.
For the compound `CS(=O)(=O)c1ccc(Cl)c(NC(=O)COC(=O)C(O)(c2ccccc2)c2ccccc2)c1`, the inhibition was inactive: 5.69%.
As to `O=C(OC1CN2CCC1CC2)c1ccc(Cl)cc1` (stereo unspecified), the inhibition is inactive: -1%.
In the case of `O=[As](O)(c1cccc(O)c1)c1cccc(O)c1`, the inhibition was inactive: 6.02%.
Consider `Cc1cccc(OCC(=O)OC2CN3CCC2CC3)c1` (stereo unspecified), for which the inhibition is inactive: 7.08%.
As for `COc1ccccc1CNC(=O)COC(=O)C(O)(c1ccccc1)c1ccccc1`, the inhibition is inactive: -1.84%.
For `O=c1[nH]c(SCC(Cl)CSc2ccc([N+](=O)[O-])cc2)nc2ccccc12` (stereo unspecified), the inhibition is inactive: -4%.
On to `CC1(CBr)Cn2c(nc3ccccc3c2=O)S1` (stereo unspecified), for which the inhibition is inactive: -16.4%.
On to `CN(C(=O)Cc1ccc(Cl)c(Cl)c1)[C@@H]1CCCC[C@H]1N1CCCC1`, for which the inhibition was inactive: -6.99%.
With `CN(CCCl)Cc1cc(Cl)c(NC2=NCCN2)c(Cl)c1`, the inhibition is inactive: 14.8%.
With `CCOP(=O)(Nc1ccc(C)cn1)OCC`, the inhibition is inactive: -13.5%.
The figure for `O=P1(Nc2ccccn2)COc2ccccc2OC1` is inactive: 0.85%; for `CCC1=CC2Cc3nc4ccc(Cl)cc4c(N)c3C(C1)C2` (stereo unspecified) it is inactive: 1.61%; for `CCOP(=O)(NC(=NC(C)c1ccccc1)NC(C)c1ccccc1)OCC` (stereo unspecified) it is inactive: -21%.
With `CC(C)(C)C(=O)NC(Sc1ncccn1)C(Cl)(Cl)Cl` (stereo unspecified), the inhibition was inactive: -9.16%.
The figure for `O=P1(Nc2ncccn2)COc2ccccc2OC1` is inactive: -5.05%; for `O=P1(Nc2ccc(Br)cn2)COc2ccccc2OC1` it is inactive: -12.7%.
As for `NS(=O)(=O)c1cccc(NC(=O)COC(=O)C(O)(c2ccccc2)c2ccccc2)c1`, the figure is inactive: 4.65%.
`Cc1ccc(OCC(=O)OC2CN3CCC2CC3)cc1` (stereo unspecified): the inhibition is inactive: -1.55%.
As for `O=[As](O)(c1cccs1)c1cccs1`, the inhibition is inactive: -1.31%.
In the case of `Nc1cccc([As](=O)(O)c2ccccc2)c1`, the inhibition is inactive: 14.1%.
On to `O=c1[nH]c(SCC(Cl)CSc2ccccc2)nc2sc3c(c12)CCC3` (stereo unspecified), for which the inhibition is inactive: -5%.
The figure for `Cc1nn(-c2ccccc2)c2c1P(=O)(N1CCOCC1)N(C)C(c1ccccc1)=N2` (stereo unspecified) is inactive: -8.38%; for `CC1CCC(C(C)C)C(OP(=O)(Nc2ccccn2)c2ccccc2)C1` (stereo unspecified) it is inactive: 5.85%.
As to `Cc1ccc(C(=O)OC2CN3CCC2CC3)cc1` (stereo unspecified), the inhibition was inactive: -6.94%.
As for `O=C(/C=C/c1ccccc1)OC1CN2CCC1CC2` (stereo unspecified), the figure is inactive: -4.28%; as for `CCCC1OP(=O)(Nc2ccccc2)OCC1CC` (stereo unspecified), inactive: -5.67%.
With `CN(C)C1(CNC(=O)c2ccc(S(C)(=O)=O)cc2)CCCCC1`, the inhibition is inactive: -3.64%.
In the case of `Cc1cc(C)c(C#N)c(SCC(Br)CBr)n1` (stereo unspecified), the inhibition is inactive: 17%.
With `CCOC(=O)Nc1cccc([As](=O)(O)O)c1`, the inhibition was inactive: 8.61%.
As for `O=[N+]([O-])c1ccc(Nc2ccc(Oc3ccc([N+](=O)[O-])cc3[N+](=O)[O-])cc2)c([N+](=O)[O-])c1`, the figure is inactive: -18.4%; as for `O=P(Nc1ccccn1)(c1cccc2ccccc12)c1cccc2ccccc12`, inactive: -11.7%.
`Cc1cc(SC(NC=O)C(Cl)(Cl)Cl)ncn1` (stereo unspecified): the inhibition was inactive: 2.39%.
The figure for `Cc1sc2nc3n(c(=O)c2c1C)CC(CI)S3` (stereo unspecified) is inactive: 5%; for `CC1CCNP(=O)(N(CCCl)CCCl)O1` (stereo unspecified) it is inactive: -7.04%; for `CCOC(=O)Nc1ccc([As](=O)(O)O)c(O)c1` it is inactive: 1.68%.
With `CCCCOc1ccc(C(=O)NCC2(N3CCCCC3)CCCCC2)cc1OC`, the inhibition was inactive: -14.8%.
Consider `COc1ccc(NC(=NP(=O)(N2CCOCC2)N2CCOCC2)N2CCOCC2)cc1`, for which the inhibition is inactive: -9.6% and inactive: -5%.
In the case of `Cc1cc(SC(NC(=O)c2ccccc2)C(Cl)(Cl)Cl)nc(C(C)C)n1` (stereo unspecified), the inhibition was inactive: -4.3%.
Take `CCOC(=O)c1ccc(NC(=O)C(C)(CCl)SC)cc1` (stereo unspecified): the inhibition is inactive: -1.15%.
For the compound `O=C(OC1CN2CCC1CC2)c1cccc([N+](=O)[O-])c1` (stereo unspecified), the inhibition is inactive: -10.7%.
On to `CCC(C)N(CC(C)C)C(=S)SC(NC(C)=O)C(Cl)(Cl)Cl` (stereo unspecified), for which the inhibition was inactive: 10.6%.
Turning to `COP1(=S)c2c(C)nn(CCC#N)c2N=C(c2ccc(F)cc2)N1C` (stereo unspecified), the inhibition was inactive: 2.15%.
For `O=C(COc1ccccc1)OC1CN2CCC1CC2` (stereo unspecified), the inhibition was inactive: -18.5%.
Take `O=C(Nc1ccncc1[N+](=O)[O-])c1ccc([N+](=O)[O-])cc1[N+](=O)[O-]`: the inhibition is inactive: -6.42%.
Consider `O=[N+]([O-])c1cc(Oc2ccc([N+](=O)[O-])cc2C(F)(F)F)cc([N+](=O)[O-])c1`, for which the inhibition was inactive: -4.3%.
In the case of `O=P(N=c1nc(-c2ccccc2)n(-c2ccccc2)s1)(N1CCOCC1)N1CCOCC1`, the inhibition is inactive: -7%.
Consider `O=C(OC1CN2CCC1CC2)C12CC3CC(CC(C3)C1)C2` (stereo unspecified), for which the inhibition is inactive: -12.7%.
`Cc1cc(=O)[nH]c(N[N+](=O)[O-])n1`: the inhibition was inactive: 1.39%.
Take `Cc1c2c(nc3ccccc13)SC(C(Cl)Cl)C2` (stereo unspecified): the inhibition was inactive: -38.2%.
`COc1ccc2nc(NP(=O)(c3ccccc3)c3ccccc3)sc2c1`: the inhibition is inactive: -10.3%.
With `COc1cc(I)ccc1[As](=O)(O)O`, the inhibition is inactive: -2%.
With `O=P1(N(CCCl)CCCl)Nc2ccccc2N1`, the inhibition was inactive: -6.02%.
Turning to `O=P1(N(CCCl)CCCl)OCCCN1CCCl` (stereo unspecified), the inhibition is inactive: -14.4%.
Turning to `COC1=NP(OC)(OC)=Nc2c1sc(=NC(=Nc1ccccc1)c1ccc(OC)cc1)n2-c1ccccc1`, the inhibition is inactive: -12%.
On to `CC(C)c1ccc(OP(=O)(Nc2ccccn2)Oc2ccccc2F)cc1` (stereo unspecified), for which the inhibition is inactive: 3.18%.
`COC(=O)C1(C)COP(=O)(N2CCCCCC2)OC1` (stereo unspecified): the inhibition was inactive: -2.98%.
As to `ClCCSc1nnc(-c2cccnc2)o1`, the inhibition was inactive: -13.4%.
Consider `CCN(CC)C(=S)SC(NC=O)C(Cl)(Cl)Cl` (stereo unspecified), for which the inhibition is inactive: 2.6%.
Regarding `O=C(OC1CN2CCC1CC2)c1cccc2[nH]cnc12` (stereo unspecified), the inhibition was inactive: -9.31%.
`CC(C)NC(=O)NP(=O)(Oc1ccccc1)Oc1ccccc1`: the inhibition was inactive: 4.51%.
With `O=[N+]([O-])c1cc([N+](=O)[O-])c(-c2ccn[nH]2)s1`, the inhibition is inactive: -2.13%.
For `O=[As](O)(c1ccc(O)cc1)c1ccccc1O`, the inhibition is inactive: 3.95%.
For the compound `C[As](=O)(O)c1cccc(C(=O)O)c1`, the inhibition was inactive: 10.2%.
The figure for `COc1cc(C(=O)NCC2(N3CCOCC3)CCCCC2)ccc1OCC(C)C` is inactive: -5.57%.
Turning to `O=[N+]([O-])c1ccc(-c2cc([N+](=O)[O-])c(O)c([N+](=O)[O-])c2)cc1`, the inhibition was inactive: 3.57%.
As for `Cc1ccc2nc3c(c(C)c2c1)CC(C(Cl)Cl)S3` (stereo unspecified), the figure is inactive: -4.69%; as for `Cc1ccc(OP(=O)(Nc2ccc([N+](=O)[O-])cn2)Oc2ccc(C)cc2)cc1`, inactive: -6.03%.
